These are literature values, as cited in US20050107306A1, “Treatment of respiratory disease associated with matrix metalloproteases by inhalation of synthetic matrix metalloprotease inhibitors” (priority 2003, published 2005).

The chains behind the UniProt entries cited, without tags or fusion partners. Residues count along the entry.
UniProt P03956, 100-469 limits assumed: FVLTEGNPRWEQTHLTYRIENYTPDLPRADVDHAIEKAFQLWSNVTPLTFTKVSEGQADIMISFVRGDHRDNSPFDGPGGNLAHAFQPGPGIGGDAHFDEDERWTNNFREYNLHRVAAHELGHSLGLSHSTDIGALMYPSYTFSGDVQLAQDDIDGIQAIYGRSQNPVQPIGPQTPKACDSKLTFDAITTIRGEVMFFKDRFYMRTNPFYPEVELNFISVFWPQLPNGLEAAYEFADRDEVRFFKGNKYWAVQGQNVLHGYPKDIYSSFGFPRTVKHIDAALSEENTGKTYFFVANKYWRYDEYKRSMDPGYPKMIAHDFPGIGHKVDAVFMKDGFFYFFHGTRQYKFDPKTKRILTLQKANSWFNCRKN
UniProt P08254, 100-477 limits assumed: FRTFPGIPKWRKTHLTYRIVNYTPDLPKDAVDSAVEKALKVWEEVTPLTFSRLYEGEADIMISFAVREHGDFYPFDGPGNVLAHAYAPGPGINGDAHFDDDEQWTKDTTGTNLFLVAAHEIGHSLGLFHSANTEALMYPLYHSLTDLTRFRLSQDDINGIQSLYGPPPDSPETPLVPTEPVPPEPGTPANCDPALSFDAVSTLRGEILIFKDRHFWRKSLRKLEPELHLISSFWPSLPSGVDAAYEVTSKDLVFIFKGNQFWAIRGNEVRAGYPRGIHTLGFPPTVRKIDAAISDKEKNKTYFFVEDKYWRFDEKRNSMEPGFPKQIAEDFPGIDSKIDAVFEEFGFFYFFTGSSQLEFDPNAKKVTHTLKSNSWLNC
UniProt P14780, 94-707 limits assumed: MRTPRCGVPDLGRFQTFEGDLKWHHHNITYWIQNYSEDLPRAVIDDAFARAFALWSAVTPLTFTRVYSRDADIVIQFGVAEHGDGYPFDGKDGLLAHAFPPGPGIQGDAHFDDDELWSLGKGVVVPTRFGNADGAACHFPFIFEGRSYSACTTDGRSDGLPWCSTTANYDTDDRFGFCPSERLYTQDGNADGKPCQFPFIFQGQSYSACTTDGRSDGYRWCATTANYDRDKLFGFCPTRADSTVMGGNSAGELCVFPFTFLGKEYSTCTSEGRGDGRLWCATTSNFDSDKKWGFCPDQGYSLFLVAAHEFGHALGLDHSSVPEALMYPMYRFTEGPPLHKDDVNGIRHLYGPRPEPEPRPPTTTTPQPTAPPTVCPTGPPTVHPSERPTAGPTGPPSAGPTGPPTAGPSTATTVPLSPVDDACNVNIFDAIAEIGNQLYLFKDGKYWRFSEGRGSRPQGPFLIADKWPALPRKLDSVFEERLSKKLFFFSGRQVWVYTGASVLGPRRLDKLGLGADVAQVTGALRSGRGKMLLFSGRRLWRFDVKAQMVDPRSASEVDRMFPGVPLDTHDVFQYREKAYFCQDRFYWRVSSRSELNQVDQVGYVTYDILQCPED
UniProt P39900, 106-470 limits assumed: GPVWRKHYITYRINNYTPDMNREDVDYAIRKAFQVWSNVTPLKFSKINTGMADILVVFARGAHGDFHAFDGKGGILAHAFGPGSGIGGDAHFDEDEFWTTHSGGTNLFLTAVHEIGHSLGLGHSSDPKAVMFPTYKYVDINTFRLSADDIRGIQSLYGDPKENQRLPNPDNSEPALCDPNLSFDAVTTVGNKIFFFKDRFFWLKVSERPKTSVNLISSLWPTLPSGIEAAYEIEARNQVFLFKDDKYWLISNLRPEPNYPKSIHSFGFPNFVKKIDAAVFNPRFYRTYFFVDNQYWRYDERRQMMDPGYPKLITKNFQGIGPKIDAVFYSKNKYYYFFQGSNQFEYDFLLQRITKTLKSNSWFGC

In one series the target is MMP-1 (collagenase-1) (Homo sapiens, UniProt P03956). To be noted: read-out: MMP-1 (collagenase-1) Kl; cited from earlier work.
Another series addresses MMP-3 (stromelysin) (Homo sapiens, UniProt P08254). To be noted: read-out: MMP-3 (stromelysin) Kl; cited from earlier work.
The target in the next series is MMP-9 (gelatinase B) (Homo sapiens, UniProt P14780). To be noted: read-out: MMP-9 (gelatinase B) Kl; cited from earlier work.
Series [1] concerns the target MMP-12 (macrophage metalloelastase, ME) (Homo sapiens, UniProt P39900). To be noted: read-out: MMP-12 (macrophage metalloelastase, ME) Kl; cited from earlier work.
In another series the target is Membrane-type MMP-1 (Homo sapiens, UniProt P50281). To be noted: read-out: Membrane-type MMP-1 Kl (values in parentheses); cited from earlier work.
A further series relates to smoking-induced COPD. To be noted: delivered orally, at oral doses several hundred-fold greater than pulmonary doses of the invention; cited from earlier work.

On to `O=C(CC1(S(=O)(=O)c2ccc(Oc3ccc(Cl)cc3)cc2)CCOCC1)NO`, for which the Ki at MMP-1 (collagenase-1) is 70 nM; on MMP-3 (stromelysin) it was 5.2 nM; at MMP-9 (gelatinase B), 0.065 nM; in series [1], 0.033 nM; on Membrane-type MMP-1 it was 0.089 nM. Further, the “efficacy against smoking-induced COPD” value in the series with smoking-induced COPD is given as “effective”.
